# Active and inactive are the calls of the source. The calls are words filed in the database; no cut-off is given here.
# Protein sequences, listed by entry. Tags and fused reporters are not part of them. Lines headed by an entry give the natural chain unless they say otherwise; changes in a name come on top.
# UniProt Q02224: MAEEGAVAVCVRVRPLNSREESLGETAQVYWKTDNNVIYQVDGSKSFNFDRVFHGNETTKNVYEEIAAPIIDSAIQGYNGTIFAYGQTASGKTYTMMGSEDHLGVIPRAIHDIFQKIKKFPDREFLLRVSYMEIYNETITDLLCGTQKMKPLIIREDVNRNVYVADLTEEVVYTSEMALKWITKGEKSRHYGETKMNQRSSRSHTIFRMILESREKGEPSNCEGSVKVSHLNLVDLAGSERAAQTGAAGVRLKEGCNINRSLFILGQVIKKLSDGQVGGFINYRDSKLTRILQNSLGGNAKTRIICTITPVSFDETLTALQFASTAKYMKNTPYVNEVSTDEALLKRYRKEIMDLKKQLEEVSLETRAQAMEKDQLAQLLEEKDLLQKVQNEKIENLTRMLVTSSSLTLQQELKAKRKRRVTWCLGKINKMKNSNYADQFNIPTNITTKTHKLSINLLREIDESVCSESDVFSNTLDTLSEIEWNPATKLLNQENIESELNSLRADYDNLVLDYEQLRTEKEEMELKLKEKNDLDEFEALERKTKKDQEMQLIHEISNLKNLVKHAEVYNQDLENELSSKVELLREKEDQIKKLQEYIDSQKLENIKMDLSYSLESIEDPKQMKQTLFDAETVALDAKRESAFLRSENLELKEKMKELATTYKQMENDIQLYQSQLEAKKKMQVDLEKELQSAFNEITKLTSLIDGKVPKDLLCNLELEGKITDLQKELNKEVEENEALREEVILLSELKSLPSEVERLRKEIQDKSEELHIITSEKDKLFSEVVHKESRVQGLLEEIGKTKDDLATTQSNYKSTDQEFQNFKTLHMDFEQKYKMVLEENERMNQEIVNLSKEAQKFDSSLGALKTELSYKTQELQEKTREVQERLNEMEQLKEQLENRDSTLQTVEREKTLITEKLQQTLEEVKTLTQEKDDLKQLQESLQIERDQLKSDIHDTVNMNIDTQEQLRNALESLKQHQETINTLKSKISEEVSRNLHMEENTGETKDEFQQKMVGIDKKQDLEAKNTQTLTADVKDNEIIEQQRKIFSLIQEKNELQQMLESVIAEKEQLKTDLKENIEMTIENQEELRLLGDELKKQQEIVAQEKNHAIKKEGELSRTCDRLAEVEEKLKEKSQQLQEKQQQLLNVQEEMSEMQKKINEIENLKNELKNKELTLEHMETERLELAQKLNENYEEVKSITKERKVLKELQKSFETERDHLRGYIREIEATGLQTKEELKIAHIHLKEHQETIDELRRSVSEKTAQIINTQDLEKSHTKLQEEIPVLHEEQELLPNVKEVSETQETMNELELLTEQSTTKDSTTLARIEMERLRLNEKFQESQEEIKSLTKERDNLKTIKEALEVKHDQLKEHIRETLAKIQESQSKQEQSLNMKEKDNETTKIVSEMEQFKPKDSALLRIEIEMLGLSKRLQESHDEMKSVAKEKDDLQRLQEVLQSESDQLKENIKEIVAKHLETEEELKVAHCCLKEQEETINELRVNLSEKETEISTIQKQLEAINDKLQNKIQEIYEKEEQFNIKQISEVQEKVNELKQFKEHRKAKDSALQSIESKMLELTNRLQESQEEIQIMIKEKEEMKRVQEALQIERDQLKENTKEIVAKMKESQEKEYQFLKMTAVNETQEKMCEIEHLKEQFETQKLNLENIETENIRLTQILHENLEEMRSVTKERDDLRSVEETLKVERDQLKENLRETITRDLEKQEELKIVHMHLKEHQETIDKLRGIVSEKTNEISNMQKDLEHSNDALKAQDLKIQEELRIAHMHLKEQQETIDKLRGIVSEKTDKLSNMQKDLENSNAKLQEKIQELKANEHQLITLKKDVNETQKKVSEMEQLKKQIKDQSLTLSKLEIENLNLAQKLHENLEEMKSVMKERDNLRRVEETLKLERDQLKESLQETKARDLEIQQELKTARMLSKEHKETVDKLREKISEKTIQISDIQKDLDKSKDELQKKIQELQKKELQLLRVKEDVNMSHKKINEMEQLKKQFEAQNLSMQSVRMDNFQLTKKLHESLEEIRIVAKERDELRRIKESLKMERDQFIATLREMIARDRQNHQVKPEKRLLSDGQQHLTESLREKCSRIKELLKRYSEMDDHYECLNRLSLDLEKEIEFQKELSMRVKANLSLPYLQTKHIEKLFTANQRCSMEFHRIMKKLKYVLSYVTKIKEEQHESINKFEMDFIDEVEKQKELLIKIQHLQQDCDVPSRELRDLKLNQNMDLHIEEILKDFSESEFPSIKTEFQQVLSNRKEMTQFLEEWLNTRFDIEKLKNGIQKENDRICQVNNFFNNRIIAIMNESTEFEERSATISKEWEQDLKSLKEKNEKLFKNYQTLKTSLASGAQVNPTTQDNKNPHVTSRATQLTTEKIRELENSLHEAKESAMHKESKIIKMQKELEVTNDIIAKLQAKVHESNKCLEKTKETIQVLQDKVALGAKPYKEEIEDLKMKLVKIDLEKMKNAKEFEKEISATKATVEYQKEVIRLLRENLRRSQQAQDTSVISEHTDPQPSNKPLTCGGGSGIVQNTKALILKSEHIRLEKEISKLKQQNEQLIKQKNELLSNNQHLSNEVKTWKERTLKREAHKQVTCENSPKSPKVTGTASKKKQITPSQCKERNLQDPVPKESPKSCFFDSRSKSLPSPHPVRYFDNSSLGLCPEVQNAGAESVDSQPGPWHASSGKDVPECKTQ
# How the values were obtained:
# [1] = target: T1, Kinesin-like protein Klp61F (Drosophila melanogaster) (UniProt P46863); experiment: Inhibition of Drosophila melanogaster Klp61F in S2 cells at 100 uM up to 7 hrs by immunofluorescence analysis; assay type: cell-based
# T1 sequence (whole entry): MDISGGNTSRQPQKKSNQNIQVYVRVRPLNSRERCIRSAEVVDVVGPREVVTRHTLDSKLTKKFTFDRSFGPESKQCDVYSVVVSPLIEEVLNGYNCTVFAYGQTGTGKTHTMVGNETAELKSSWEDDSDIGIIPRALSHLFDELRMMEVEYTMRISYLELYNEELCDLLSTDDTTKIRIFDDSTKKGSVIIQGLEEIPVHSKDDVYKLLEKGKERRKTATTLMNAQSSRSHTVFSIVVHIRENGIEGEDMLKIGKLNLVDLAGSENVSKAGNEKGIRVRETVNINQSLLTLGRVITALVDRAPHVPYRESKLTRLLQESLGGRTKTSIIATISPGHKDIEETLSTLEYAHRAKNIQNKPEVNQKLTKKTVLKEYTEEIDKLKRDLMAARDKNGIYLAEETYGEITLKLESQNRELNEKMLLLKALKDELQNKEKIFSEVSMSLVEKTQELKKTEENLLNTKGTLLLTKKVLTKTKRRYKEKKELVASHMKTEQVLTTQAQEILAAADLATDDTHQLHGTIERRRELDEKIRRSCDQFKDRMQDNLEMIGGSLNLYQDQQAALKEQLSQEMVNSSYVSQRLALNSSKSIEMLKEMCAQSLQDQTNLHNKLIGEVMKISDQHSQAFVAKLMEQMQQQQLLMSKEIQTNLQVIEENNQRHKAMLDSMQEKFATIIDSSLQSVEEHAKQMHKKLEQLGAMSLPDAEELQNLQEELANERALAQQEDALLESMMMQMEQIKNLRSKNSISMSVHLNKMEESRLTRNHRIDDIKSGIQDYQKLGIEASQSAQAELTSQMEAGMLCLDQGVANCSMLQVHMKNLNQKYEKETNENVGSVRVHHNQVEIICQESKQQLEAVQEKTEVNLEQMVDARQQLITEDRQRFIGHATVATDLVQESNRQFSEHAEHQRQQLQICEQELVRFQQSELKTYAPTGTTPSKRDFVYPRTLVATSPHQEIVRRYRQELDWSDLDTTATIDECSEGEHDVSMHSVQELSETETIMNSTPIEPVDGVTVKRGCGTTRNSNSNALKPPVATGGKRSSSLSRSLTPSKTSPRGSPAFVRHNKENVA
# HeLa [2] = experiment: Effect on interphase microtubule organization in human HeLa cells at 1 uM; assay type: functional, cell-based
# [3] = target: T2, Chromosome-associated kinesin KIF4A (Homo sapiens) (UniProt O95239); experiment: Inhibition of chromokinesin
# T2 sequence (whole entry): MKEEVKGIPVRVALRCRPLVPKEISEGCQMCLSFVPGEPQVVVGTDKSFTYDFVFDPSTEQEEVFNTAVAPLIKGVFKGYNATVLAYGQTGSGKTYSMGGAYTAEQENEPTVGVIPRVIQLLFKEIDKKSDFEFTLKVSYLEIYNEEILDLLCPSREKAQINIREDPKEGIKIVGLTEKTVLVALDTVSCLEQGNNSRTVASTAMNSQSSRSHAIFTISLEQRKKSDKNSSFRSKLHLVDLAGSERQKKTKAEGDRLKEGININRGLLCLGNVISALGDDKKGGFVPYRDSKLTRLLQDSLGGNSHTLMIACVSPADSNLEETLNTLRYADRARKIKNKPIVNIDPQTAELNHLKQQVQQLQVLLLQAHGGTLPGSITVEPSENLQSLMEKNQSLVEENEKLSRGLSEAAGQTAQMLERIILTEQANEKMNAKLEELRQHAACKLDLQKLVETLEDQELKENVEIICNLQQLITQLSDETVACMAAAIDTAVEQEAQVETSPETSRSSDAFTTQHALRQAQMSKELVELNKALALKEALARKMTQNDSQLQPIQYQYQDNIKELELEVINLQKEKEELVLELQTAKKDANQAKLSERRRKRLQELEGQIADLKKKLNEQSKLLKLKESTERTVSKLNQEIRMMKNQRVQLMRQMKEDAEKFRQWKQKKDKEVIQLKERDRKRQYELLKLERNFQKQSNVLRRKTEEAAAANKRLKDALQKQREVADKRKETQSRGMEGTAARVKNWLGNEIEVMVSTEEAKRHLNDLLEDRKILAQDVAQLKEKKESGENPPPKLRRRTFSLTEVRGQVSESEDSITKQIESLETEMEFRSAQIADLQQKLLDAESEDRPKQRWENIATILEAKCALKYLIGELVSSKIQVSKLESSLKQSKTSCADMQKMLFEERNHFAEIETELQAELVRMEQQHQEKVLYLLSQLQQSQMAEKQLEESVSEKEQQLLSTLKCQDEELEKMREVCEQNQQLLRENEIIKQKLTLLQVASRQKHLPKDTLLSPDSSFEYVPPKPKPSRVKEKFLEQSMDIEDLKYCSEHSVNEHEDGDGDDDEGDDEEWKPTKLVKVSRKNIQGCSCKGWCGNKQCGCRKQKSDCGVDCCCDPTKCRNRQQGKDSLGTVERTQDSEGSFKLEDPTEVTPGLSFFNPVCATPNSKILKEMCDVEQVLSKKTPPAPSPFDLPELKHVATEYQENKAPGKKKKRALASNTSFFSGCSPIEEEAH
# HeLa [4] = experiment: Inhibition of bipolar spindle formation in human HeLa cells at 1 uM; assay type: functional, cell-based
# [5] = target: T3, Kinesin-like protein KIF2C (Homo sapiens) (UniProt Q99661); experiment: Inhibition of MACK
# T3 sequence (whole entry): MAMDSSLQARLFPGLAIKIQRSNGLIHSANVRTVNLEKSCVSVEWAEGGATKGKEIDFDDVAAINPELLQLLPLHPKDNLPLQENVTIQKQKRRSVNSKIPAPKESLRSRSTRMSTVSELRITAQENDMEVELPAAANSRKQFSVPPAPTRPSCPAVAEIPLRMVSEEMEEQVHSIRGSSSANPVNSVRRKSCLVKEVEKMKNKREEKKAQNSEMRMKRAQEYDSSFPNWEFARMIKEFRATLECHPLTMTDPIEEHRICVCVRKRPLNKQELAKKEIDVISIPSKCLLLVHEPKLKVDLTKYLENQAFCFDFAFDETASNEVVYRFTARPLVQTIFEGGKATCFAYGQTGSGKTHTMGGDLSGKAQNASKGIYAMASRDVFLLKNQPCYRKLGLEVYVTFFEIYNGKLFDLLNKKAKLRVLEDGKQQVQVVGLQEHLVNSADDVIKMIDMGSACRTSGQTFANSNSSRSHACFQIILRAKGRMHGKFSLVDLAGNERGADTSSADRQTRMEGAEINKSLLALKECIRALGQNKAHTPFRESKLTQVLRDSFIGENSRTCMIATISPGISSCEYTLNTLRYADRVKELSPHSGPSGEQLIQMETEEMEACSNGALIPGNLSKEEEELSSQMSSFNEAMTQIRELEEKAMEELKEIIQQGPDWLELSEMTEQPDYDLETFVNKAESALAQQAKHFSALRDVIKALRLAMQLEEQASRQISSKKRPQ
# [6] = target: Centromere-associated protein E (Homo sapiens) (UniProt Q02224); experiment: Inhibition of CENP-E
smiles,measurement,setting,value
N[C@H](CO)CSC(c1ccccc1)(c1ccccc1)c1ccccc1,inhibition,[1],inactive
same,Activity,HeLa [2],inactive
same,inhibition,[3],inactive
same,inhibition,HeLa [4],Active
same,inhibition,[5],inactive
same,inhibition,[6],inactive

# Reference: ChEMBL document CHEMBL1817631, “Synthesis and characterization of tritylthioethanamine derivatives with potent KSP inhibitory activity” (Bioorg Med Chem, 2011)
